{
  "source": "patent US20260027116A1",
  "about": "“Methods of Treating Chronic Graft-Versus-Host Disease Following Allogeneic Hematopoietic Stem Cell Transplantation” (Kadmon Corporation, LLC, priority 2022, published 2026)",
  "test_system": "chronic graft-versus-host disease (cGVHD)",
  "experiment": "Example 1 phase IIa study: response per 2014 NIH cGVHD criteria (ORR, BOR, DOR, TTR, TTNT, FFS, OS, organ response)",
  "type": "in vivo, human",
  "details": "mITT, up to 64.2 months",
  "excerpt": "Eligible patients were allogeneic bone marrow transplant or allogeneic hematopoietic cell transplant (alloHCT) recipients of age≥18 years with persistent cGVHD manifestations after having received one to three prior systemic lines of therapy and who were receiving corticosteroid treatment with or without a calcincurin inhibitor and/or concurrent extracorporeal photopheresis.\nInclusion criteria. Adult male and female subjects at least 18 years of age who had allogenic bone marrow transplant or hematopoietic stem cell transplantation. Received glucocorticoid therapy and calcineurin therapy or glucocorticoid therapy alone for cGVHD at study entry. Participants on calcineurin therapy only, without glucocorticoid therapy, were not eligible. Participants also received other therapies thought not to be immunosuppressive (such as extracorporeal photopheresis; ECP), were considered for enrollment in this study on a case-by-case basis. […] No more than 3 prior lines of treatment for cGVHD. Karnofsky Performance Scale of greater than (>) 40.\nExclusion Criteria. Participant who was pregnant or breastfeeding. Received an investigational GVHD treatment within 28 days of study entry. Had acute GVHD. Taken any medication known to be a moderate or strong inhibitor of the cytochrome (CY) P3A4 isozyme or any drugs that are moderate or strong CYP3A4 inducers. […]\n(FIG. 1) Before enrollment of the subsequent cohort, safety data in each previous cohort were analyzed after eight patients reached two months of treatment to assure that there was no safety signal. […]\nProgression was defined per the 2014 NIH cGVHD Consensus Criteria. […] Response was initially assessed after two cycles; however, this was amended to evaluate response on day 1 of each cycle, starting at cycle 2 day 1.\nAll responses were assessed by the investigators.\nAssuming a best ORR of 25%, which was determined to be clinically meaningful, the study was expected to have approximately 90% probability to show a response in ≥2 patients per cohort. […]",
  "data": [
    {"compound": "CC(C)NC(=O)COc1cccc(-c2nc(Nc3ccc4[nH]ncc4c3)c3ccccc3n2)c1", "note": "[Belumosudil, 2-{3-[4-(1H-indazol-5-ylamino)-2-quinazolinyl]phenoxy}-N-(propan-2-yl) acetamide]", "values": [
      {"measurement": "Percentage of Participants With Overall Response (95% CI)", "setting": "Cohort 1, 200 mg QD", "value": "65 (38-86%) percentage of participants"},
      {"measurement": "Percentage of Participants With Overall Response (95% CI)", "setting": "Cohort 2, 200 mg BID", "value": "69 (41-89%) percentage of participants"},
      {"measurement": "Percentage of Participants With Overall Response (95% CI)", "setting": "Cohort 3, 400 mg QD", "value": "57 (34-78%) percentage of participants"}
    ]}
  ]
}
